Data on one substance can be found in US5906922A, “Delivery of nucleic acids” (Commonwealth Scientific and Industrial Research Organisation, priority 1994, dated 1999).

This data set concerns Cos 1 cells. Description: MTT cytotoxicity assay. The following applies: 72 hours continuous exposure, 50 μM or greater. Type of data set: cell-based, African Green Monkey. How it is done:
Cytotoxicity was assayed using a standard MTT (3-[4,5x, Dimethylthiazol-2-yl]2, 5-diphenyltetrazolium bromide; Thiazole blue) assay. Briefly Cos 1 cells were seeded at 2×10^4 cells/well in a 96 well microtitre tray and allowed to adhere overnight in 100 μl of culture medium. Test compound was then added at 2×concentration in 100 μl of culture medium in doubling dilutions down the plate. Cells were incubated under normal culture conditions of 37° C. and 5% CO2 for 72 hours. 20 μl of MTT (5mg/ml in PBS) was added for 2.5 hours at 37° C. and then all liquid removed. 100 μl of acidic propanol was added and the plate shaken for 10 minutes before reading the OD at 570 nm with ref OD 630 nm.
A lead compound, K3ATP3 (tri lysine alanine tris tripalmitate) called VerafectinA3, was designed which would be expected to attract DNA by virtue of its overall positive charge. […] Cytotoxicity was tested by exposing Cos 1 cells continuously for 72 hours to the K3ATP3 diluted from a stock of 2.5 mg/ml in 25% DMSO. There was 70% survival of cells compared to the same concentration of DMSO diluent at 12.5-50 μM compound (FIG. 1a and b).
For orientation: Tetrazolium assays rely on reduction of a dye to a coloured formazan, in cell work by metabolically active cells.

With “fluorescein alanine ethanolamine palmitate [FLAEP]”, the “cytotoxicity (MTT)” value is recorded as “significant cytotoxicity”.
